Bounds are passed on as bounds.

Protein sequences, listed by entry. Tags and fused reporters are not part of them.
UniProt Q92918, whole entry: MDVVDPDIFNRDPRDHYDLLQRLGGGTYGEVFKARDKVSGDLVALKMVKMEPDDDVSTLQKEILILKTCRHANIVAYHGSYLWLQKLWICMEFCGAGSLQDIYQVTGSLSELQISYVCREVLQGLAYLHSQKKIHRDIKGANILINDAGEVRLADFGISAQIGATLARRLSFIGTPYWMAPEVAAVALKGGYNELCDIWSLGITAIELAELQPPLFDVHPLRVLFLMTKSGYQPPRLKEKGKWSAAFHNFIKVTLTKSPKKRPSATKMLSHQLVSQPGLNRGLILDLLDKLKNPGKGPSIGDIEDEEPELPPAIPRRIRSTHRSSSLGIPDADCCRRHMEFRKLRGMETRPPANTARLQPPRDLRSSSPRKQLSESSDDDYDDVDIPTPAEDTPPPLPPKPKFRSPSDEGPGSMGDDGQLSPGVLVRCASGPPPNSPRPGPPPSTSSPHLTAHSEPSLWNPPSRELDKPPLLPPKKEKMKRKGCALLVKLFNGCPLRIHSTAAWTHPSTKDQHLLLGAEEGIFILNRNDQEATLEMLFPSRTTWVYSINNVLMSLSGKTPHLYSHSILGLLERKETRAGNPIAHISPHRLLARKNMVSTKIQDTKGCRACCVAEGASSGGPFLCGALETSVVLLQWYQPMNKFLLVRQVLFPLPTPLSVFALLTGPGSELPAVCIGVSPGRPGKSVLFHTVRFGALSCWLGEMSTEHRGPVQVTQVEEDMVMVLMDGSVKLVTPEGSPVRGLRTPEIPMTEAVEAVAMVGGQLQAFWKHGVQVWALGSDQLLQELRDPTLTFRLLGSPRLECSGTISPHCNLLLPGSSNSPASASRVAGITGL

As usually defined, the IC50 is the concentration at which inhibition is half-maximal.

Assay [1] deals with p-SLP76 phosphorylation of Jurkat cells. The experiment in a line: Assay for inhibitory activity against p-SLP76 phosphorylation of Jurkat cells. To be noted: read-out: IC50 (nM) for inhibition of p-SLP76 phosphorylation of Jurkat cells, stimulator CD3CD28, 30 min. How it is done:
2.1 Assay for Inhibitory Activity Against p-SLP76 Phosphorylation of Jurkat Cells
Jurkat cells in a good growth state were added to a centrifuge tube, centrifuged, and resuspended. The cell density was adjusted to 6.25×10^6 cells/mL, and the cells were seeded in a 384-well small-volume white plate at […]. Different compounds dissolved in DMSO were added to the wells using a nanoliter pipettor to obtain final concentrations of the compounds of 2500 nM to 10.29 nM, and a control was set; the wells were set in duplicate. After 1 h of cell culture, the stimulator CD3CD28 (manufacturer: stemcell, 4 μL) was added and the cells were incubated at 37° C. for 30 min. 3 μL of lysis buffer (manufacturer: BioAuxilium) was added to each well, and the plate was shaken at room temperature for 30 min. After the lysate was well mixed, 5 μL of pre-mixed antibody (manufacturer: BioAuxilium) in assay buffer was added and the plate was incubated overnight at room temperature. The signal values were measured on a PerkinElmer Envision multimode microplate reader (excitation: 320 nm, emission: 615 nm/665 nm), and IC50 was calculated by four-parameter filling.

In the next assay the target is HPK1 kinase (Homo sapiens (Human), UniProt Q92918). The experiment in a line: Assay for in vitro inhibitory activity against HPK1 kinase. To be noted: read-out: IC50 (nM) for in vitro inhibitory activity against HPK1 kinase; HPK1 1 ng/μL, ATP 1 mM, STK Substrate 1-biotin 500 nM. How it is done: Experimental Example 1: Assay for In Vitro Inhibitory Activity Against HPK1 Kinase A kinase buffer (Enzymatic buffer 5×) was diluted to 1×, and 10 mM MgCl2, 1 mM DTT, and 0.005% Tween 20 were added. A 100 ng/μL HPK1 (Life technology) stock solution was diluted with the kinase buffer to obtain a 1.67×, 1.67 ng/μL working solution (final concentration: 1 ng/μL), and the working solution was seeded in a 384-well plate at 6 μL/well. Different compounds dissolved in DMSO were added to the wells using a nanoliter pipettor to obtain final concentrations of the compounds of 1000 nM to 0.244 nM (4-fold serial dilution, 7 concentrations in total), and blank control wells (without enzyme) and negative control wells (with enzyme, plus vehicle DMSO) were set; the wells were set in duplicate. After the enzyme and the compounds were incubated at room temperature for 1 h, a 5×, 5 mM ATP dilution (final concentration: 1 mM) in the kinase buffer was mixed with a 5×, […] substrate (Cisbio, STK Substrate 1-biotin; final concentration: 500 nM) in equal volume, and the mixture was added to the plate at 4 µL/well. The plate was sealed with a film and then incubated at room temperature for 2 h. […] The signal values (excitation: […]) were measured using a PE Envision multimode microplate reader, and IC50 was calculated by four-parameter fitting.

Consider `CN(C)Cc1nc(Nc2ccc(-c3cnn4ccc5c(c34)CCO5)c3c2C(=O)NC3)ccc1C1CCOCC1`, for which the IC50 in assay [1] was below 50 nM.
Consider `[2H]C([2H])(c1nc(Nc2ccc(-c3ccnc4c3c3c(n4C)CCC3)c3c2C(=O)NC3)ccc1C1CCOCC1)N(C)C`, for which the half-inhibitory concentration (IC50) in assay [1] fell in the range of 50 to 100 nM.
The same measure, in the same setting: the value for `CN(C)Cc1nc(Nc2ccc(-c3cnc4ccc5c(n34)CCC5)c3c2C(=O)NC3)ccc1C1CCOCC1` was below 50 nM.
For `CN(C)Cc1nc(Nc2ccc(-c3cnn4ccc5c(c34)CCO5)c3c2C(=O)NC3)ccc1C1CCN(C)C(=O)C1` (stereo not shown), the IC50 on HPK1 kinase was 3.4 nM; in assay [1], below 50 nM.
In the same order, the values of `CNCc1nc(Nc2ccc(-c3cnn4ccc5occc5c34)c3c2C(=O)NC3)ccc1C1CCOC1` (stereo not shown) are 2.3 nM and below 50 nM.

The values are drawn from patent publication US20250236619A1, “FUSED BICYCLIC COMPOUND CONTAINING PYRROLINONE” (CHIA TAI TIANQING PHARMACEUTICAL GROUP CO., LTD., priority 2022, published 2025).
